Consider two molecules from US9856220B2 (AbbVie Deutschland GmbH & Co. KG, priority 2011, dated 2018).

Sequences of proteins named here, by UniProt entry; tags and fusion partners are left off.
UniProt Q9Y233, whole entry, species assumed: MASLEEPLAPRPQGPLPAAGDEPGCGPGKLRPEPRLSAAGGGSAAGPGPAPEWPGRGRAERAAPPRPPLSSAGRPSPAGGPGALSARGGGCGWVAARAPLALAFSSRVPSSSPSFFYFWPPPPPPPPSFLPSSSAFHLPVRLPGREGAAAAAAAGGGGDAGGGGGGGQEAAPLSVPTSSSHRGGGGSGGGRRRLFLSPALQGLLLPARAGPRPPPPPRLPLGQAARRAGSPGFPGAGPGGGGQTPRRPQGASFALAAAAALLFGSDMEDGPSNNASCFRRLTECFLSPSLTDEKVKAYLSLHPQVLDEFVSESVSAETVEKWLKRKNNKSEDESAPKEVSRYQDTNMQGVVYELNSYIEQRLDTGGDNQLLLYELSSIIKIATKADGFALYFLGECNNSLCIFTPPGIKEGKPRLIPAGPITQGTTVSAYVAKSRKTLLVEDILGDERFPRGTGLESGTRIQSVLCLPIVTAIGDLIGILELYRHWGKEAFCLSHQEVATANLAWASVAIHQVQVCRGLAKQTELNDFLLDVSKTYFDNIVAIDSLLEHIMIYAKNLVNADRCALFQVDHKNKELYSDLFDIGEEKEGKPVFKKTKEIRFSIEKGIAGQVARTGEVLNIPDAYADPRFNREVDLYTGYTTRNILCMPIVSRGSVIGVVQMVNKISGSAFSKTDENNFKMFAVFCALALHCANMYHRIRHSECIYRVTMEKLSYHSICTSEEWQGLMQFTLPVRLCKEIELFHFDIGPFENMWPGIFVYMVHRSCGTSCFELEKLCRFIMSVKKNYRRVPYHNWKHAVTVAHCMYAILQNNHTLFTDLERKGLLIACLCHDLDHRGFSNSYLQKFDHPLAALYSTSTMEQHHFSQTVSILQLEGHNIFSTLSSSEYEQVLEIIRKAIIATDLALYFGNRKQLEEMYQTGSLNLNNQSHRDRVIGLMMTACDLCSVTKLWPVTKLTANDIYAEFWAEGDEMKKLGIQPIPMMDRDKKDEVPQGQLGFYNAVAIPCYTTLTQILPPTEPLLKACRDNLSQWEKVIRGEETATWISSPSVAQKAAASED

The structures appear in SMILES notation.

For this test, the target named is PDE10A (Homo sapiens (Human), UniProt Q9Y233). The test is described as follows: Measurement of PDE activity (recombinant PDE, cAMP HTRF). Type of test: biochemical. As to the method: a) Measurement of PDE Activity
The recombinant PDE proteins are used in in vitro enzymatic reaction for measurement of PDE activity. These recombinant proteins, including PDE10A (human, rat and mouse PDE10) and isoforms of PDEs 1, 3, 4, and 5, were purchased from commercial vendor BPS Bioscience. The enzymatic activity of PDEs was determined by cAMP measurement kit from CisBio (IBA) using HTRF technology.
The PDE enzymatic reaction was carried out in assay buffer (20 mM Tris-HCl pH7.5, 10 mM MgCl2, 0.1% bovine serum albumin) containing enzyme and substrate. […] The substrate cyclic nucleotide (cAMP or cGMP) concentration used in the assay was 20 nM for PDE10, and 100 nM for other PDEs. The inhibitory effect of compound was determined by incubating various concentration of inhibitor in the enzymatic assay. […] Next, the compound at varying concentration was mixed with PDE enzyme. The reaction was initiated by addition of cyclic nucleotide substrate, and incubated for 60 minutes at 29 C. The reaction was stopped by addition of lysis buffer from assay kit. The cAMP-d2 and anti-cAMP cryptate in the lysis buffer detected the level of cAMP left from the PDE hydrolysis reaction. […] Thus, IC50 value of inhibitor can be obtained by plotting inhibitor concentration against PDE activity at that concentration.
Background: Time-resolved FRET reads energy transfer from a long-lived donor to a nearby acceptor.

A word on the IC50: it is the concentration needed to halve the response being measured. Turning to `CCn1cc(C(=O)NC(C)c2ccc(F)cc2)c2cc(OC)c(OC)cc2c1=O` (centres unmarked) [Example 39, 2-Ethyl-6,7-dimethoxy-1-oxo-1,2-dihydro-isoquinoline-4-carboxylic acid [1-(4-fluoro-phenyl)-ethyl]-amide], the concentration for half-maximal inhibition (IC50) was 100 to 200 nM.

Turning to `CCn1cc(C(=O)N[C@@H](C)c2ccc(F)cc2)c2cc(OC)c(OC)cc2c1=O` [Example 165, (S)-2-Ethyl-N-(1-(4-fluorophenyl)ethyl)-6,7-dimethoxy-1-oxo-1,2-dihydroisoquinoline-4-carboxamide], the half-maximal inhibitory concentration (IC50) is 100 to 200 nM.
